ChEMBL document CHEMBL5376006, “Discovery of a Hidden Pocket beneath the NES Groove by Novel Noncovalent CRM1 Inhibitors” (J Med Chem, 2023)

Protein sequences, listed by entry. Tags and fused reporters are not part of them.
UniProt O14980, whole entry: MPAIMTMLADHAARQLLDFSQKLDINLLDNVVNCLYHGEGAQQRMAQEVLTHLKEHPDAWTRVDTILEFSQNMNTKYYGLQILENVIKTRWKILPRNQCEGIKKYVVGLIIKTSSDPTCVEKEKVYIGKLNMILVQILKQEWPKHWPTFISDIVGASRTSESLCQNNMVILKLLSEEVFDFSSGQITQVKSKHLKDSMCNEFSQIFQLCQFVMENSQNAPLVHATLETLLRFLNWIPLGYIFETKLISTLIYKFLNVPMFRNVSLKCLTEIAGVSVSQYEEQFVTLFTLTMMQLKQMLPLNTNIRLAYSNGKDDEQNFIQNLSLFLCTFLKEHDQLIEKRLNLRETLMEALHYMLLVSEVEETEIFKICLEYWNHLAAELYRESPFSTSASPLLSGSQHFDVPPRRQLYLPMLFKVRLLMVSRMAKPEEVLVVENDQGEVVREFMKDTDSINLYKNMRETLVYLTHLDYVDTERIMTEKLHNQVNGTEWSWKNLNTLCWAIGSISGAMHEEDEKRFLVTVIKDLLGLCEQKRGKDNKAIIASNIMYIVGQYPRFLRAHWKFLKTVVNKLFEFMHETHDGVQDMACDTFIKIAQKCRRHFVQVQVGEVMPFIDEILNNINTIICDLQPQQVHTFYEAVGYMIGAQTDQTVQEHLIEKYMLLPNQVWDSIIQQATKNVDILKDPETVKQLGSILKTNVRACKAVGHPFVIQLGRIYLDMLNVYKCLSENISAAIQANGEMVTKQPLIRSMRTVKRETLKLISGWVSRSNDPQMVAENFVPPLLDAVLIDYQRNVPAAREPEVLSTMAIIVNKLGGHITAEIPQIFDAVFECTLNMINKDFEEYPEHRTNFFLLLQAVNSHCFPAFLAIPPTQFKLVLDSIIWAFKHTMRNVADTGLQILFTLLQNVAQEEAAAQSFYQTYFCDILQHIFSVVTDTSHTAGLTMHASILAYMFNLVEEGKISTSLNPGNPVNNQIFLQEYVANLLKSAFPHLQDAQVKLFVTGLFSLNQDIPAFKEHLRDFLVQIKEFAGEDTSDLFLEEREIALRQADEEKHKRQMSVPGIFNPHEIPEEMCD

Biological target: Exportin-1 (Homo sapiens, UniProt O14980)
Assay: Covalent inhibition of CRM1 (unknown origin) binding to GST-tagged NES PKI assessed as CRM1/NES band ratio at 20 uM incubated for 1.5 hrs by Coomassie brilliant blue staining based pull-down assay

SMILES: O=C(/C=C\n1cnc(-c2cc(C(F)(F)F)cc(C(F)(F)F)c2)n1)NNc1cnccn1 [SELINEXOR]
- Ratio: 0.01
